Data from US9850258B2, “Substituted tetrahydrocarbazole and carbazole carboxamide compounds” (BRISTOL-MYERS SQUIBB COMPANY, priority 2013, dated 2017).

Test system: CD69 expression on B cells in human whole blood
Assay: Whole Blood Assay of BCR-Stimulated CD69 Expression on B Cells
Assay type: cell-based

`Cc1cc(C(N)=O)c2[nH]c3cc(C(C)(C)O)ccc3c2c1-c1cccc(-n2c(=O)c3cccc(F)c3n(C)c2=O)c1C` (atropisomer, axis not shown) [Example 29, 4-(R)-(3-(S)-(8-Fluoro-1-methyl-2,4-dioxo-1,2-dihydroquinazolin-3(4H)-yl)-2-methylphenyl)-7-(2-hydroxypropan-2-yl)-3-methyl-9H-carbazole-1-carboxamide] gave an IC50 of 240 nM.
